Literature values in patent publication US20250249115A1, “COMBINATION THERAPY FOR TREATING TUMOR ANTIGEN EXPRESSING CANCERS” (Gilead Sciences, Inc., priority 2022, published 2025).

Tested on: esterase activity residing primarily in the liver
Settings: cited from earlier work

Structure (SMILES): CCc1c2c(nc3ccc(OC(=O)N4CCC(N5CCCCC5)CC4)cc13)-c1cc3c(c(=O)n1C2)COC(=O)[C@]3(O)CC [irinotecan]
- fraction converted to the active SN-38 form: 5%
